# Antibody variant affinities, Ab-14 light chain, assay B

All variants were tested on one target, the spike HR2 peptide PDVDLGDISGINAS (SARS-CoV-2).

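The starting antibody came from a phage panning campaign against this peptide. The variants were designed computationally from a first round of random CDR variants and then made and measured. Group labels follow the data file (En: ensemble of fine-tuned language models; GP: Gaussian process model; HC: hill climbing; Gen: genetic algorithm; Gibbs: Gibbs sampling; a sequence that several methods proposed may carry one label only). In AlphaSeq, yeast of one mating type display the scFv and yeast of the other type display the target. Mating (16 h, 30 °C) was followed by selection of diploids and sequencing of their barcodes. The ratio of observed to expected reads was calibrated, replicate by replicate, on BCL2-family standards whose Kd was known from biolayer interferometry. The assay was run in six technical replicates.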

Each scFv is VH, three GGGGS repeats, VL, as in the parent Ab-14, and differs from it in the CDRs of the light chain only.
VH: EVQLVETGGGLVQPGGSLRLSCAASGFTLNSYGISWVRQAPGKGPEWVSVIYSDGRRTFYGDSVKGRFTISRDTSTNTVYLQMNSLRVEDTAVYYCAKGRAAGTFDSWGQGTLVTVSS
VL: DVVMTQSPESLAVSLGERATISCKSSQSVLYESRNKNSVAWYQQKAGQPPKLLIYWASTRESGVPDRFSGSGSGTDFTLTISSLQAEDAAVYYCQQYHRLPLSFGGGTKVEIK

The parent's light chain CDRs are KSSQSVLYESRNKNSVA, WASTRES, QQYHRLPLS; each variant's own CDRs replace them letter for letter. Variants here have more than six changes. The read-out is the apparent dissociation constant on a log10 scale (nM): the lower, the stronger. A mean of the replicates is given; it leaves out those without a signal. Where no diploid with the target was found in any replicate, the entry reads "nd": below detection, most likely a poor binder, though not proof of it. The authors averaged sequences with at least three values out of six and counted those with two or fewer as poor binders. Of ten entries with the parent sequence, four were seen in most replicates (averages 0.34 to 2.37), three in one and three in none, so single entries are noisy. Values of this round are not directly comparable with the first-round values of the same sequences. Empty control strains, which show no peptide, gave a signal in 4% of pairings with all light chain designs; the median was 2.64 and 95% of these signals were weaker than 1.59. No background was subtracted.

With KIGDTLNQLMTKKNNVA | DLVMREN | QQYFRLPLS [En_Gen] the result was 0.58 (6 of 6 replicates).
With HMSMMTLMGSRNRNSVA | QMTTREN | QQYDRLPLA [En_Gen] the result was 0.60 (6 of 6 replicates).
With IVSQLMLVGMHAKNSIA | EASSRLN | QQYDRLPLI [En_Gen] the result was nd (0 of 6 replicates).
With MISQLTNMGQFAINSVA | QASIRNE | QQYDRLPLM [En_Gen] the result was 0.94 (6 of 6 replicates).
With MIYGAQRELGRAANSIA | DNVTRYQ | QQYERLPLS [En_Gen] the result was 3.44 (2 of 6 replicates).
With KISQLVNFEGKLKNSVA | QMSTRES | QQYDRLPLS [En_HC] the result was 2.07 (6 of 6 replicates).
With MLSMMEQHMGDRMHNVA | ETNVAKM | QDYFRLPLM [En_Gibbs] the result was nd (0 of 6 replicates).
With KISYMGELFSTNHSSIA | QASTREQ | QQYHRLPLS [En_HC] the result was 1.29 (6 of 6 replicates).
With KVFPSGGGLSRNKNSVA | DASTRES | QQYHRLPLS [GP_Gibbs] the result was 0.31 (6 of 6 replicates).
With KVSMLINQTFENSNNVA | EMVTRTK | QQYNRLPLS [En_Gen] the result was 0.84 (6 of 6 replicates).
With TLSQITGHMSMSKNNVA | EMETREN | QQYDRLPLS [En_Gen] the result was 0.57 (6 of 6 replicates).
With HISQMVMYGSCMKNNVA | QVSLREE | QQYHRLPLS [En_HC] the result was 1.13 (6 of 6 replicates).
With QIYQAMHTLSQTKDNVA | DVNERGR | QQYFRLPLS [En_Gen] the result was 0.37 (6 of 6 replicates).
With MMSSLMGYESRNIQNVA | QTSTRES | QQYDRLPLI [En_Gen] the result was 0.32 (6 of 6 replicates).
With NVRLNEGEIAMHMYAIA | GVDLRAD | QQYSRLPLH [En_Gibbs] the result was 0.77 (4 of 6 replicates).
With KLGGVTSYEMQNKNSVA | QMTTREK | QQYHRLPLS [En_HC] the result was 0.14 (6 of 6 replicates).
With KIQQSVYYEDLNKNSVA | SASTRCS | QQYHRLPLS [GP_Gibbs] the result was 0.33 (6 of 6 replicates).
With MISQIYNMGQFAINSVA | QASLRCN | QQYDRLPLM [En_Gen] the result was nd (0 of 6 replicates).
With SVSEFMKGLMMRTDSIA | DNTTREN | QQYDRLPLS [En_Gen] the result was 1.09 (2 of 6 replicates).
With TLSQSWGMESHHKNNVA | QEQTREK | QQYFRLPIS [En_HC] the result was 1.90 (6 of 6 replicates).
With KLSEQAEYESRNKNSVA | QASTREM | QQYHRLPLS [GP_Gibbs] the result was -0.57 (6 of 6 replicates).
With MMSQVTGMGSRQRNNVA | QTSQREP | QQYDRLPLI [En_Gen] the result was 0.77 (6 of 6 replicates).
With ALGDVTRMESNKKNSIA | DMSNREN | QQYHRLPLS [En_HC] the result was -0.36 (6 of 6 replicates).
With TISQSTYWEQFNKNSVA | QTSTREE | QDYDRLPLS [En_HC] the result was 2.46 (1 of 6 replicates).
With IISQVDGYESRNKNSIA | DQSTRGS | QQYDRLPLS [En_HC] the result was 0.83 (6 of 6 replicates).
With MISDLTMYGSRNVNSVA | DLSQRGS | QQYHRLPLS [En_HC] the result was 0.04 (6 of 6 replicates).
With KLDMNELGQSQNSSHVA | GSANKCQ | QQYSRLPLS [En_Gibbs] the result was 0.37 (6 of 6 replicates).
With MMGMTVINQQNMIQNVA | DMNERFA | QQYFSLPLS [En_Gibbs] the result was 1.45 (6 of 6 replicates).
With KLSMSDLMESRNWNAVA | HASTREE | QQYHRLPLS [GP_Gibbs] the result was 0.37 (6 of 6 replicates).
With TISDLMHMESRNVNNVA | DLVKREK | QQYHRLPLS [En_HC] the result was -0.27 (6 of 6 replicates).
With HMSMLTLMGMKQRNSVA | QMTMREN | QQYDRLPLA [En_Gen] the result was 1.05 (6 of 6 replicates).
With KFDMHIPYQGEQNAHIA | GTTNRLT | QQYFKLPLS [En_Gibbs] the result was 0.08 (6 of 6 replicates).
With KLQMSHGYESRMKNSVA | QASQREE | QQYHRLPLS [GP_Gibbs] the result was 0.11 (6 of 6 replicates).
With KLMHLSFVHDREWNNVA | DLNVKAS | QQYDRLPLV [En_Gibbs] the result was 0.58 (6 of 6 replicates).
With SLAMLLDQVYAKGSNIA | NAAELVV | QQYYRLPLT [En_Gibbs] the result was 0.64 (6 of 6 replicates).
With KVSQAQDYESRNKNSVA | QASHREQ | QQYHRLPLS [GP_Gibbs] the result was 0.44 (6 of 6 replicates).
With KLSWSNLYESRNANSVA | NASQRCS | QQYHRLPLS [GP_Gibbs] the result was 0.22 (6 of 6 replicates).
With MISDLMLYGSRNKNPIA | NASMREY | QQYHRLPLE [En_HC] the result was 1.39 (6 of 6 replicates).
With KISMLINQTFEVSNNVA | EMVTREK | QQYNRLPLS [En_Gen] the result was 0.90 (6 of 6 replicates).
With TISQMMLYLSNLKNSVA | QAETRES | QQYHRLPIS [En_HC] the result was 2.25 (5 of 6 replicates).
With MISDLTMYGSRNVNSVA | DLSTRGR | QQYDRLPLS [En_HC] the result was 0.38 (6 of 6 replicates).
With KLSLSVLLESRDVNAVA | EASTRES | QQYHRLPLS [GP_Gibbs] the result was -0.15 (6 of 6 replicates).
With NITQQGDAMGDQRNNVA | NVETLQH | QQYAHLPLL [En_Gibbs] the result was 0.48 (6 of 6 replicates).
With MVNGIMDHLSKQHNNVA | ETETRNS | QQYDRLPLS [En_Gen] the result was 1.25 (6 of 6 replicates).

Excerpt, the final 3 entries:

{"CDR-L1": "KLSLSVLLESRDVNAVA", "CDR-L2": "EASTRES", "CDR-L3": "QQYHRLPLS", "group": "GP_Gibbs", "log10 Kd (nM), mean": "-0.15", "seen in": "6 of 6"}
{"CDR-L1": "NITQQGDAMGDQRNNVA", "CDR-L2": "NVETLQH", "CDR-L3": "QQYAHLPLL", "group": "En_Gibbs", "log10 Kd (nM), mean": "0.48", "seen in": "6 of 6"}
{"CDR-L1": "MVNGIMDHLSKQHNNVA", "CDR-L2": "ETETRNS", "CDR-L3": "QQYDRLPLS", "group": "En_Gen", "log10 Kd (nM), mean": "1.25", "seen in": "6 of 6"}

Data: MIT Lincoln Laboratory AlphaSeq set, Li et al. 2023, doi:10.1038/s41467-023-39022-2, as distributed in FLAb.